Values quoted from earlier work, collected in patent publication US10022421B2, “Treatment of primary and metastatic carcinoma” (Spectrum Pharmaceuticals Inc., priority 2012, dated 2018).

Amino acid sequences for entries named in this document (tags omitted). Residues count along the entry.
UniProt P24530, 27-442: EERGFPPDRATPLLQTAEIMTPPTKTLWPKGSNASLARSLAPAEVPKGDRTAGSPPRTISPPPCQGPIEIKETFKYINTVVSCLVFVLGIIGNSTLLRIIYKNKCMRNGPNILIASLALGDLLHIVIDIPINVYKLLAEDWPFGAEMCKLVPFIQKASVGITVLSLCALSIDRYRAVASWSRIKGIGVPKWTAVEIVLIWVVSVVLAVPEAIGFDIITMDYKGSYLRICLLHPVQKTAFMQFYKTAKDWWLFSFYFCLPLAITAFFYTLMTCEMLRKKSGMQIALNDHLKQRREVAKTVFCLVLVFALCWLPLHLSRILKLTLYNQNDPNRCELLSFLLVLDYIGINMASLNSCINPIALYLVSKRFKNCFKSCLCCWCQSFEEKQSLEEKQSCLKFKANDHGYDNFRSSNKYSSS

Target: ETB receptors (Homo sapiens, UniProt P24530)
Settings: ETB vs ETA; cited from earlier work

For “N-Succunyl-[Glu^9, Ala^11,15] Endothelin-1 (8-21) (DEEAVYFAHLDIIW; N-terminal succinyl; ETB receptor agonist IRL-1620; MOD_RES (1)..(1) Succinylated)”, the “selectivity of binding to ETB receptors over endothelin A receptors” value is listed as 120,000 times.
